Results from patent US11123316B2, “Imaging composition and uses thereof” (The University of Melbourne, priority 2014, dated 2021).

What was measured:
[1] = tested on: HER2-positive tumour (LS174T colorectal tumour model); assay: Comparative micro-PET imaging of HER2-positive tumour (LS174T); type: in vivo, mice; conditions: 24 hours, FIGS. 2 and 3
Method: A comparative study was also undertaken to compare the efficacy of a compound of the present invention (specifically, ^89Zr(DFO-squarate-trastuzumab)) as a tumour imaging agent, with two other imaging agents (^89Zr(DFO-maleimide-trastuzumab) and ^9ZrCl). The ^89Zr(DFO-maleimide-trastuzumab) was prepared by dissolving a 50-fold excess of DFO-maleimide in water, and adding it to trastuzumab (Herceptin) in PBS buffer. Unreacted DFO-maleimide was removed by spin filtration and the purified conjugate was radiolabelled with ^89Zr(ox)4 as described above for DFO-squarate.
Mice with HER2 positive tumours were injected with two doses of a solution containing either ^89Zr(DFO-squarate-trastuzumab), ^89Zr(DFO-maleimide-rastuzumab) or ^89ZrCl, in 20 mM PBS (pH 7) with 5% sodium gentisate (200 μL, 6.0 MBq each). PET images were taken at intervals of 22 hours, 46 hours, 94 hours and 8 days post administration in respect of the ^89Zr(DFO-squarate-trastuzumab)-treated mouse, and at 24 hours for the ^89Zr(DFO-maleimide-trastuzumab)- and ^89ZrCl-treated mice (see FIGS. 1, 2 and 3, respectively).

[2] = tested on: HER2-positive tumour (BT474 breast carcinoma model); assay: Micro-PET imaging of BT474 tumour-bearing mice, Study 1; type: in vivo
BT474 tumour = assay: Mouse PET imaging (BT474), Study 2; type: in vivo, NOD/SCID mice
LS174T tumour = assay: Mouse PET imaging (LS174T); type: in vivo, BALB/c nude mice
Method: Three doses (7.5 MBq each) were drawn up from the purified mAb solution and administered to LS174T tumour bearing BALB/c nude mice. PET imaging was performed at 24, 48 and 96 hours. Mice were harvested at 96 hours for biodistribution data.

## ^89Zr(DFO-maleimide-trastuzumab): ^89Zr-labelled conjugate of DFO-maleimide with trastuzumab (Herceptin), comparison imaging agent
[1]
  Distribution of the radionuclide in PET images: significant distribution of the radionuclide

## ^89Zr-DFOSq-trastuzumab: ^89Zr-labelled conjugate of DFO-squaramide (DFOSq) with trastuzumab (Herceptin)
[2]; Mouse 1, 22 h post administration
  Tumour maximum standardised uptake value (SUVmax): 10.76
[2]; Mouse 1, 46 h post administration
  Tumour maximum standardised uptake value (SUVmax): 16.17
[2]; Mouse 1, 94 h post administration
  Tumour maximum standardised uptake value (SUVmax): 21.97
[2]; Mouse 1, 8 d post administration
  Tumour maximum standardised uptake value (SUVmax): 31.73
[2]; Mouse 2, 22 h post administration
  Tumour maximum standardised uptake value (SUVmax): 11.62
[2]; Mouse 2, 46 h post administration
  Tumour maximum standardised uptake value (SUVmax): 16.24
[2]; Mouse 2, 94 h post administration
  Tumour maximum standardised uptake value (SUVmax): 25.79
[2]; Mouse 2, 8 d post administration
  Tumour maximum standardised uptake value (SUVmax): 37.21
BT474 tumour; Mouse ID #3, 24 h
  Tumour maximum standardised uptake value (SUV): 8.7
BT474 tumour; Mouse ID #5, 48 h
  Tumour maximum standardised uptake value (SUV): 14.4
BT474 tumour; Mouse ID #6, 48 h
  Tumour maximum standardised uptake value (SUV): 12.9
BT474 tumour; Mouse ID #6, 96 h
  Tumour maximum standardised uptake value (SUV): 9.9
BT474 tumour; Mouse ID #7, 24 h
  Tumour maximum standardised uptake value (SUV): 9.5
BT474 tumour; Mouse ID #7, 96 h
  Tumour maximum standardised uptake value (SUV): 9.1
LS174T tumour; Mouse 5, 24 h
  Tumour standardised uptake value: 3.10
LS174T tumour; Mouse 5, 48 h
  Tumour standardised uptake value: 3.70
LS174T tumour; Mouse 5, 96 h
  Tumour standardised uptake value: 4.72
LS174T tumour; Mouse 6, 24 h
  Tumour standardised uptake value: 3.32
LS174T tumour; Mouse 6, 48 h
  Tumour standardised uptake value: 3.73
LS174T tumour; Mouse 6, 96 h
  Tumour standardised uptake value: 5.32
LS174T tumour; Mouse 7, 24 h
  Tumour standardised uptake value: 3.07
LS174T tumour; Mouse 7, 48 h
  Tumour standardised uptake value: 4.04
LS174T tumour; Mouse 7, 96 h
  Tumour standardised uptake value: 5.65
